For 1 compound, fold induction and Neh2-luc fold activation results are on record in article PMC5201116, “Bioactive Flavonoids and Catechols as Hif1 and Nrf2 Protein Stabilizers - Implications for Parkinson’s Disease” (Aging and Disease, 2016).

Common to all, as to format: cell-based
For test [1], the system named is HRE-luciferase reporter (HT22 hippocampal cell line). The test is described as follows: HRE-luc reporter assay. Conditions: Mus musculus, HT-22, 3 h, read-out: HRE-luc fold activation. The source says: A promoter-reporter construct that contained 68 bp of a known hypoxia and HIF-1 regulated gene, enolase, containing a wild type hypoxia response element (HRE, 5’-RCTGT-3’), is a widely used approach for screening for HIF activators of different mechanism of action. A cell-based assay with HRE-luciferase reporter system is based on transfected immortalized hippocampal cell line (HT22) and allows screening for a broad spectrum of compounds that include: activators of HIF transcription; activators of HIF binding to HRE; and effectors of HIF protein stability (PHD inhibitors, pVHL & proteasome inhibitors). The assay was performed the same way as for HIF ODD-luc reporter except the cells were plated at the density of 10,000 cell per well and incubated overnight.
A general note: A reporter such as luciferase makes a cellular process visible.

Test [2] relates to Neh2-luc reporter (SH-SY5Y cell line). The test is described as follows: Neh2-luc reporter assay. The conditions noted are these: at 10 µM, 3 h incubation. As to the method: (§1) SH-SY5Y cell lines stably expressing HIF1 ODD-luc or Neh2-luc reporters were grown in the DMEM/F12 supplemented with GlutaMAX (Thermo Fisher Scientific) containing 10% FBS, 100 U/ml penicillin, and 100 μg/ml streptomycin and plated into 384-well white flat-bottom plates at 7,000 cell/well in 30 µl serum and incubated overnight at 37°C, 5% CO2. The next day compounds were added to a final concentration of 10 µM and the plates were incubated for 3 hours at 37°C. Reporter activation after 3 h incubation with the studied compound was compared to that for ciclopirox (HIF1 ODD-luc reporter) or TBHQ (Neh2-luc reporter), taken as 100%. Luciferase reporter activity was measured with a SteadyGlo reagent from Promega providing stable reading for 1 h.
(§2) Cells were plated at the density of 25,000 cell per well using a WellMate multichannel dispenser from Matrix (Thermo Fisher Scientific, Waltham, MA) and grown overnight on DMEM/F12+GlutaMAX (100 µl per well). Then an inhibitor was added, and the plates were incubated for a fixed time interval; the medium was removed, cells lysed, and luciferase activity was measured on a SpectraMax M5e platereader (Molecular Devices, Sunnyvale, CA) with BrightGlo™ reagent (Promega, Madison, WI). The reporter activation was normalized to the background luminescence. […]

Test [3] deals with HIF1 ODD-luc reporter (SH-SY5Y cell line). As to the kind of experiment: HIF1 ODD-luc reporter assay. The conditions noted are these: Homo sapiens, 3 h incubation, read-out: ODD-luc fold activation. Here is the method:
as §1, §2

As to `O=c1c(O)c(-c2ccccc2)oc2cc(O)ccc12` [compound 2, 3,7-Dihydroxy-], the fold induction at 10 µM turned out to be 1.5 ± 0.2 in test [1] and 2 ± 0.2 in test [3]. The Neh2-luc fold activation result in test [2] is listed as “Inactive”.
